What was measured:
[1] = biological target: T1, FPR2 (Homo sapiens, UniProt P25090); assay: Competition binding: inhibition of WK(FITC)YMVm binding to FPR2 (wild type and mutants), HEK293F cells; parameters: expressed in transfected cells; host or cells: HEK293F cells, pTT5 vector, co-transfected with GαΔ6qi4myr (1:2 w/w); details: FPR2 WT; competition with WK(FITC)YMVm
T1 sequence (P25090 1-351): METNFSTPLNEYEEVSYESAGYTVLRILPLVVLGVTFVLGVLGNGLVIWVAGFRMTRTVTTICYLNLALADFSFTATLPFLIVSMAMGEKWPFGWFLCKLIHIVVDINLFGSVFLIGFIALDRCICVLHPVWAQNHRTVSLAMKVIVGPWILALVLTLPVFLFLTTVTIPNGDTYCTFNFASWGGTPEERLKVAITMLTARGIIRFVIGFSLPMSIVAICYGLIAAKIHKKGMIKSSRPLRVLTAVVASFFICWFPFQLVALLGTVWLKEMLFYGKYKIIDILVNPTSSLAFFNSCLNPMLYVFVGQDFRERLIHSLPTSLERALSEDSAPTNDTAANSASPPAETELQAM
Protocol: The genes of wild-type FPR1 and FPR2 and mutants with a Flag tag at the N termini were cloned into pTT5 vector (Invitrogen) and expressed in HEK293F cells (Invitrogen). Cells were harvested 48 h post transfection with 1 μg ml^−1 plasmid. Cell-surface expression of the receptors was measured by mixing 10 μl cells with 15 μl of TBS buffer supplemented with 4% BSA, 20% (v/v) viability-staining solution 7-AAD (Invitrogen, Cat#00-6993-50), and 0.1% (v/v) anti-FLAG M2-FITC antibody (Sigma, Cat#F4049) at 4 °C for 20 min. After incubation, 175 μl of TBS buffer was added and the fluorescent signal was measured using a flow-cytometry reader (Guava easyCyte HT, Millipore). Then, the cells were washed and resuspended to a final concentration of 1 × 10^6 cells per ml in Hanks’ Balanced Salt Solution (HBSS) buffer supplemented with 0.5% bovine serum albumin (BSA) and 20 mM HEPES, pH 7.4.
The mean fluorescent intensity of each well was then read by the FCM reader. Total binding and nonspecific binding were measured in the absence and presence of the unlabeled ligand (200 μM WKYMVm), respectively. […] Mean fluorescent-intensity values were measured by flow cytometry. Data were analyzed using Prism 8.0 (GraphPad software).

[2] = biological target: T1, FPR2; assay: Inositol-phosphate (IP) accumulation assay, FPR2 (wild type and mutants) with chimeric GαΔ6qi4myr in HEK293F cells; format: cell-based; details: FPR2 WT
Protocol: Flag-tagged wild-type FPR1 and FPR2 and mutants were cloned into the pTT5 vector and expressed in HEK293F cells. Cells were cotransfected with the plasmids of receptor and a chimeric Gα protein GαΔ6qi4myr, which redirects the Gαi signaling pathway to the Gαq phospholipase-C pathway, at a ratio of 1:2 (w/w), and were harvested 48 h post transfection. The cell-surface expression was measured as described above.
The IP-One Gq assay kit (Cisbio Bioassays, 62IPAPEB) was used to measure the peptide agonist-induced IP production. […] Then, the cells were supplemented with 3 μl cryptate-labeled anti-IP1 monoclonal antibody (1:20 diluted in lysis and detection buffer) and 3 μl d2-labeled IP1, and incubated at room temperature for another 1 h. […] The accumulation of IP1, EC50, and pEC50 were calculated using nonlinear regression (curve fit) according to a standard dose–response curve in GraphPad Prism 8.0 (GraphPad software).

binding to FPR2 (in words) [1]	potency of peptide variant (in words) [2]	Substance
incapable of binding		Aβ1-12: N-terminal fragment of Aβ (DAEFRHDSGYEV; Amyloid-beta protein 42; UniProt P05067 672-683, looked up, fragment)
	substantially reduced potency	Ab42-D1A: Aβ42 variant D1A
